The chains behind the UniProt entries cited, without tags or fusion partners. Residues count along the entry.
UniProt P37231, 231-505: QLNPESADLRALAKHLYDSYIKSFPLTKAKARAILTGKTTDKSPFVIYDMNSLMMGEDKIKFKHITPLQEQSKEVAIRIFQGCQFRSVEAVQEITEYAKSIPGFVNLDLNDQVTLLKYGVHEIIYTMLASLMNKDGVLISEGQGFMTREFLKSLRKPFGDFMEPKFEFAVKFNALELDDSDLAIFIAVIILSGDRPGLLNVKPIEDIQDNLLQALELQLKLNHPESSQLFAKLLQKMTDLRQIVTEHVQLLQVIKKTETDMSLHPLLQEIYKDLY

In paper PMC5652320 (ACS chemical biology, 2017):

Target: His-PPARγ LBD (Homo sapiens, UniProt P37231)
Assay type: biochemical
Settings: TRAP220 coactivator peptide; no covalent antagonist

## CN(CCOc1ccc(CC2SC(=O)NC2=O)cc1)c1ccccn1 (stereo not shown) [rosiglitazone]
  TRAP220 recruitment on titration into apo/ligand-free PPARγ LBD: concentration dependent increase in TRAP220 recruitment
